Patent US10172961B2 (priority 2014, dated 2019)

Sequences of proteins named here, by UniProt entry; tags and fusion partners are left off. Residues count along the entry.
UniProt P06828, 110-539 limits assumed: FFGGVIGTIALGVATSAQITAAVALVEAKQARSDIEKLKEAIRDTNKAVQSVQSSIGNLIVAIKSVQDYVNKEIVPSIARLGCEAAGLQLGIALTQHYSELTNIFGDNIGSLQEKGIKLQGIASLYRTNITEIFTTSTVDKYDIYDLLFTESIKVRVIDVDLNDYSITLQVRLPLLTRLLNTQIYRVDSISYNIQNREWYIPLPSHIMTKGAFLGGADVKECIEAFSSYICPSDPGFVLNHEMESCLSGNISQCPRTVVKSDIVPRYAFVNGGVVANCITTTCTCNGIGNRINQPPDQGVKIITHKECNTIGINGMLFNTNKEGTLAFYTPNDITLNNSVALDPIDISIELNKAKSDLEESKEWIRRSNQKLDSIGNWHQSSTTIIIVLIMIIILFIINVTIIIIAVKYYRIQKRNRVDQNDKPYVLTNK
UniProt P06828, 19-109 partner limits assumed: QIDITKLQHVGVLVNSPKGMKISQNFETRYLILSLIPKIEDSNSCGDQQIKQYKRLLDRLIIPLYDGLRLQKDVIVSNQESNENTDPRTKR

What was measured:
HPIV3 = tested on: HPIV3; parameters: species or system cotton rats; conditions: rat, in vivo, ip, 5 mg/kg
[1] = molecular target: HPIV3 envelope glycoproteins (Human parainfluenza 3 virus, UniProt P06828); assay: cell-based; parameters: species or system Human parainfluenza virus type 3; conditions: read-out: IC90 nM, in vitro efficacy
[2] = mouse, in vivo, sc, 2 mg/kg

## CC[C@H](C)[C@H](NC(=O)[C@H](CO)NC(=O)[C@H](CC(=O)O)NC(=O)[C@H](CC(C)C)NC(=O)[C@@H](NC(=O)[C@H](CCCCN)NC(=O)[C@H](CC(N)=O)NC(=O)[C@H](CO)NC(=O)[C@H](CCCNC(=N)N)NC(=O)[C@H](CCCNC(=N)N)NC(=O)[C@@H](NC(=O)[C@H](Cc1c[nH]c2ccccc12)NC(=O)[C@H](CCC(=O)O)NC(=O)[C@H](CCCCN)NC(=O)[C@H](CO)NC(=O)[C@H](CCC(=O)O)NC(=O)[C@H](CCC(=O)O)NC(=O)[C@H](CC(C)C)NC(=O)[C@H](CC(=O)O)NC(=O)[C@H](CO)NC(=O)[C@H](CCCCN)NC(=O)[C@@H](NC(=O)[C@H](CCCCN)NC(=O)[C@H](CC(N)=O)NC(=O)[C@H](CC(C)C)NC(=O)[C@@H](NC(=O)[C@@H](NC(=O)[C@H](CO)NC(=O)[C@@H](NC(=O)[C@H](CC(=O)O)NC(=O)[C@@H](NC(=O)[C@@H]1CCCN1C(=O)[C@H](CC(=O)O)NC(=O)[C@H](CC(C)C)NC(=O)[C@H](C)NC(=O)[C@@H](NC(C)=O)C(C)C)[C@@H](C)CC)[C@@H](C)CC)[C@@H](C)CC)C(C)C)[C@@H](C)CC)[C@@H](C)CC)[C@@H](C)CC)C(=O)NCC(=O)N[C@@H](CO)C(=O)NCC(=O)N[C@@H](CO)C(=O)NCC(=O)N[C@@H](CSCC(=O)NCCOCCOCCOCCOCCC(=O)Oc1c(C)c(C)c2c(c1C)CC[C@@](C)(CCC[C@H](C)CCC[C@H](C)CCCC(C)C)O2)C(N)=O [VIKI-PEG4-toc]
HPIV3
  total amount of virus present in the lungs: significantly reduced the total amount of virus present in the lungs
[1]
  IC90: 100 nM
[2]
  presence of peptide in the brain (staining): present in the brain

## CC[C@H](C)[C@H](NC(=O)[C@H](CO)NC(=O)[C@H](CC(=O)O)NC(=O)[C@H](CC(C)C)NC(=O)[C@H](CCCCN)NC(=O)CNC(=O)[C@H](CC(N)=O)NC(=O)[C@H](CO)NC(=O)[C@H](CCCNC(=N)N)NC(=O)[C@H](CCCNC(=N)N)NC(=O)[C@@H](NC(=O)[C@H](Cc1c[nH]c2ccccc12)NC(=O)[C@H](CCC(=O)O)NC(=O)[C@H](CCCCN)NC(=O)[C@H](CO)NC(=O)[C@H](CCC(=O)O)NC(=O)[C@H](CCC(=O)O)NC(=O)[C@H](CC(C)C)NC(=O)[C@H](CC(=O)O)NC(=O)[C@H](CO)NC(=O)[C@H](CCCCN)NC(=O)[C@H](C)NC(=O)[C@H](CCCCN)NC(=O)[C@H](CC(N)=O)NC(=O)[C@H](CC(C)C)NC(=O)[C@@H](NC(=O)[C@@H](NC(=O)[C@H](CO)NC(=O)[C@@H](NC(=O)[C@H](CC(=O)O)NC(=O)[C@@H](NC(=O)[C@@H]1CCCN1C(=O)[C@H](CC(=O)O)NC(=O)[C@H](CC(C)C)NC(=O)[C@H](C)NC(=O)[C@@H](NC(C)=O)C(C)C)[C@@H](C)CC)[C@@H](C)CC)[C@@H](C)CC)C(C)C)[C@@H](C)CC)C(=O)NCC(=O)N[C@@H](CO)C(=O)NCC(=O)N[C@@H](CO)C(=O)N[C@@H](CSCC(=O)NCCOCCOCCOCCOCCOCCOCCOCCOCCOCCOCCOCCOCCOCCOCCOCCOCCOCCOCCOCCOCCOCCOCCOCCOCCC(=O)O[C@H]1CC[C@@]2(C)C(=CC[C@H]3[C@@H]4CC[C@H]([C@H](C)CCCC(C)C)[C@@]4(C)CC[C@@H]32)C1)C(N)=O [VG-PEG24-chol]
[1]
  IC90: 50 nM

## CC[C@H](C)[C@H](NC(=O)[C@H](CO)NC(=O)[C@H](CC(=O)O)NC(=O)[C@H](CC(C)C)NC(=O)[C@@H](NC(=O)[C@H](CCCCN)NC(=O)[C@H](CC(N)=O)NC(=O)[C@H](CO)NC(=O)[C@H](CCCNC(=N)N)NC(=O)[C@H](CCCNC(=N)N)NC(=O)[C@@H](NC(=O)[C@H](Cc1c[nH]c2ccccc12)NC(=O)[C@H](CCC(=O)O)NC(=O)[C@H](CCCCN)NC(=O)[C@H](CO)NC(=O)[C@H](CCC(=O)O)NC(=O)[C@H](CCC(=O)O)NC(=O)[C@H](CC(C)C)NC(=O)[C@H](CCC(N)=O)NC(=O)[C@H](CO)NC(=O)[C@H](CCCCN)NC(=O)[C@@H](NC(=O)[C@H](CCCCN)NC(=O)[C@H](CC(N)=O)NC(=O)[C@H](CC(C)C)NC(=O)[C@@H](NC(=O)[C@@H](NC(=O)[C@H](CO)NC(=O)[C@@H](NC(=O)[C@H](CC(=O)O)NC(=O)[C@@H](NC(=O)[C@@H]1CCCN1C(=O)[C@H](CC(=O)O)NC(=O)[C@H](CC(C)C)NC(=O)[C@H](C)NC(=O)[C@@H](NC(C)=O)C(C)C)[C@@H](C)CC)[C@@H](C)CC)[C@@H](C)CC)C(C)C)[C@@H](C)CC)[C@@H](C)CC)[C@@H](C)CC)C(=O)NCC(=O)N[C@@H](CO)C(=O)NCC(=O)N[C@@H](CO)C(=O)NCC(=O)N[C@@H](CSCC(=O)NCCOCCOCCOCCOCCOCCOCCOCCOCCOCCOCCOCCOCCOCCOCCOCCOCCOCCOCCOCCOCCOCCOCCOCCOCCC(=O)O[C@H]1CC[C@@]2(C)C(=CC[C@H]3[C@@H]4CC[C@H]([C@H](C)CCCC(C)C)[C@@]4(C)CC[C@@H]32)C1)C(N)=O [VIQKI-PEG24-chol]
[1]
  IC90: 1 nM
